# Binding of CDR-mutated scFvs to a peptide of the spike HR2 region

Data: MIT Lincoln Laboratory AlphaSeq set, Li et al. 2023, doi:10.1038/s41467-023-39022-2, as distributed in FLAb.

All variants were tested on one target, the spike HR2 peptide PDVDLGDISGINAS (SARS-CoV-2).

The variants keep the light chain, the linker and the frameworks of Ab-14 (scFv order VH, the linker GGGGSGGGGSGGGGS, VL).
VH: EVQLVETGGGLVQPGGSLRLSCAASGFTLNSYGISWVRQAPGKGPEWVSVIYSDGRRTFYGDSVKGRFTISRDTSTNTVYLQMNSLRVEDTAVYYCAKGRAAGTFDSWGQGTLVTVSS
VL: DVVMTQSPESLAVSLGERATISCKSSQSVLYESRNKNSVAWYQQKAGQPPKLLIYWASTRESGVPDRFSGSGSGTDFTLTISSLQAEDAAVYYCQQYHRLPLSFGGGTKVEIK

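The starting antibody came from a phage panning campaign against this peptide. The variants were designed computationally from a first round of random CDR variants and then made and measured. Group labels follow the data file (Ctrl: baseline library sampled from a position-specific scoring matrix, with some repeated check sequences; GPLM: also part of the Gaussian process libraries; Gen: genetic algorithm; a sequence that several methods proposed may carry one label only). The scFvs were displayed on barcoded MATa yeast, the peptide on MATalpha yeast. After mating in shaken culture at 30 °C for 16 h, diploids were selected and their barcode pairs sequenced. Each replicate has its own calibration line, from reference interactions of the BCL2 family. The assay was run in six technical replicates.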

The parent's heavy chain CDRs are GFTLNSYGIS, VIYSDGRRTFYGDSVK, GRAAGTFDS; each variant's own CDRs replace them letter for letter. Affinities are written as log10 Kd with Kd in nM; a lower number is a better binder. "ND" marks a missing value. The strain was present, yet no cells mated with the target were sequenced in that replicate, which points to weak or no binding. Where one sequence has several entries in the source, the replicates are listed entry by entry, parted by semicolons. A sequence measured in both rounds can read differently, since the two assays cover different ranges. Background: pairings of all heavy chain designs with three empty control strains gave a value in 1% of cases (median 2.08, 5th percentile 0.84). Values in that range, when seen in few replicates, are hard to tell from nonspecific mating. Also given: how often the same scFv was detected with the empty control strains, with their mean in brackets. In the paper, a design with two or fewer of six values counts as a poor binder. Of ten entries with the parent sequence, four were seen in most replicates (averages 0.34 to 2.37), three in one and three in none, so single entries are noisy.

| # | CDR-H1 | CDR-H2 | CDR-H3 | group | replicates, log10 nM | control signals |
|---|---|---|---|---|---|---|
| 1 | GFTLNSYGIS | VIYSDGRRTAYDDSVR | GRAAGTFDS | Ctrl | 1.35 / 0.13 / 1.59 / -0.09 / 1.15 / 0.62 | 1 of 18 (1.70) |
| 2 | GRTLNSYGIS | VIYSDGRRTAYGDSVK | GRAAGTPDS | Ctrl | ND / 1.79 / 2.41 / ND / ND / ND | 1 of 18 (2.99) |
| 3 | GFALRSYGIS | VIYSDGERTFYSDSVK | GRAAGFFDS | Ctrl | ND / ND / ND / 3.67 / ND / ND | 0 of 18 |
| 4 | GFTLNSYGIS | VIYSDGRRTAYSDSVK | GRAAGGFDS | Ctrl | ND / ND / ND / ND / ND / ND | 0 of 18 |
| 5 | GFTLNSYGRS | VIYSDGRRTMYGDSVK | GRAMGTFDT | Ctrl | ND / ND / ND / ND / ND / ND | 0 of 18 |
| 6 | GLTLEDYGIS | VIYSDGRRTFYTDSVK | GRATGTFDS | Ctrl | ND / ND / ND / ND / ND / ND | 0 of 18 |
| 7 | GFTLNSYGIS | HIYSDGRRTFYSDSVK | GRAAGTFDS | Ctrl | ND / ND / ND / ND / ND / ND | 0 of 18 |
| 8 | GFTLNSYGIS | VIYSDGRRTFYLDSVK | GRAAGTFES | Ctrl | ND / ND / ND / ND / ND / ND | 0 of 18 |
| 9 | GFTLESYGIS | VIYSDGRRTFYGDSVK | GRLAGTFDS | Ctrl | ND / ND / ND / ND / ND / ND | 0 of 18 |
| 10 | GFALNSYGIS | VIYSDGRRTYYGDSVK | GRAAGTFDS | Ctrl | ND / ND / 1.42 / 1.72 / ND / ND | 0 of 18 |
| 11 | GFTLNSYGIS | VIYSDGRRTFYGDSFK | GRAAGTWDS | Ctrl | ND / ND / ND / ND / ND / ND | 0 of 18 |
| 12 | GFTLNQYGIS | VIYSDGRRTFYGNSVK | GRAAGTFHS | Ctrl | ND / ND / ND / ND / ND / ND | 0 of 18 |
| 13 | GFTLNSYGIS | VIYSDGRRTFYGDSVC | GRAAGTFMS | Ctrl | ND / 2.24 / ND / ND / ND / ND | 0 of 18 |
| 14 | GFEINSYGIS | VIYSDGRRTFYGDSVK | GRAAGTFDS | Ctrl | 1.61 / 1.13 / 2.36 / 0.77 / 1.52 / 1.40 | 0 of 18 |
| 15 | GFDLNSQGIS | VIYSDGWRTFYDDQVK | GRAAQTFDT | Ctrl | ND / ND / ND / ND / ND / ND | 0 of 18 |
| 16 | GFTLNSYGIS | VIYSDGFRTFYGDSVK | GRTAGTFDS | Ctrl | ND / ND / ND / ND / ND / ND | 0 of 18 |
| 17 | GFTDNSYGVS | VMYADGRRTFYGDSVK | GRAAGTFDS | Ctrl | 2.59 / 2.97 / 2.74 / 3.04 / 3.34 / ND | 1 of 18 (4.12) |
| 18 | GFWLNSYGIS | VIYSDGRRTFYGDSVK | GRWAGTFDS | Ctrl | ND / ND / ND / ND / ND / 2.62 | 0 of 18 |
| 19 | GFRLNEYGIS | VIYSDGRRTFYGDSVK | GRAAGTWDS | Ctrl | ND / ND / ND / ND / ND / ND | 0 of 18 |
| 20 | GFTLNMYGIS | VIYSDGRRTFYGDWVK | GRAAGTFFS | Ctrl | ND / ND / ND / ND / 0.37 / ND | 0 of 18 |
| 21 | GFTLNSYGIS | VIYSDGRRTFYGDSVK | GRCAVQFDS | Ctrl | ND / ND / ND / ND / ND / ND | 0 of 18 |
| 22 | GFTLRSYGIS | VIYSDGRRTFYGDSVK | GRAAGTFDH | Ctrl | ND / ND / ND / ND / ND / ND | 0 of 18 |
| 23 | GFQLNNYGIS | VIYSDGRRTFYSDSVK | GRAATFFDS | Ctrl | ND / ND / ND / ND / ND / ND | 0 of 18 |
| 24 | GFTLNSYGIS | VIYSDGERTFYGDSVK | GTAAGTVDS | Ctrl | ND / ND / ND / ND / ND / ND | 0 of 18 |
| 25 | GTTLNSYGIS | VIYSDGRRTYYTDSVK | GQAAGTFDS | Ctrl | ND / 2.48 / ND / ND / ND / ND | 0 of 18 |
| 26 | GFTLNMYGIS | VIYSDGRRTFYGDSVK | GRNAGTADS | Ctrl | ND / ND / ND / ND / ND / ND | 0 of 18 |
| 27 | GFTLNQYGIS | VIYSDGRRTFYKDSVK | GRAAKTFDS | Ctrl | ND / ND / ND / ND / ND / ND | 0 of 18 |
| 28 | GFTLNSYGIS | VIYSDGERTFYGDEVK | GRAAGTFDV | Ctrl | ND / ND / 1.68 / 1.73 / 1.89 / 2.75 | 0 of 18 |
| 29 | GFTLNSYGIS | VIYSDGRRTFYGDSVK | GWEAGTFDS | Ctrl | ND / ND / 1.07 / ND / 1.06 / 1.65 | 0 of 18 |
| 30 | GFTLNSYGIS | VIYSDGMRTFYGDSVR | GIEAGTFDS | Ctrl | 1.55 / 1.12 / 0.82 / 2.24 / 2.40 / 1.46 | 0 of 18 |
| 31 | GFTLNSYGIS | VIYSDGRRTFYGDNVK | GRIAGTFDS | Ctrl | ND / 1.50 / 0.69 / 1.17 / 1.82 / 1.42 | 1 of 18 (2.16) |
| 32 | GFCLESYGIS | VIYSDGRRTFYGDSVK | GFARGTFES | Ctrl | ND / ND / ND / ND / ND / ND | 0 of 18 |
| 33 | GFRLNQYGIS | VIYTDGRRTFYGDKVK | GEVAGTFDS | Ctrl | ND / 1.35 / ND / 3.29 / 2.60 / 2.62 | 1 of 18 (2.65) |
| 34 | GFTLNSYGIS | VIASDGRRTQYGDNVK | GRAPGTFDS | Ctrl | ND / ND / ND / ND / ND / ND | 0 of 18 |
| 35 | GFTLNSYGIS | VIYSDGRRTFYTDSVK | GKAAGTFDS | Ctrl+GPLM_Gen | ND / ND / 1.27 / ND / ND / ND; ND / ND / ND / 1.26 / 2.72 / ND | 1 of 36 (1.61) |
| 36 | GFTLNSYGIS | VIYSDGRRAFYGDSVK | GREAGTFDS | Ctrl | ND / ND / ND / -0.63 / -1.44 / ND | 0 of 18 |
| 37 | GFHLNSYGIS | VIYSDGVRTMYGDSVK | GRSAGTFDC | Ctrl | ND / ND / ND / ND / ND / ND | 0 of 18 |
| 38 | GFTLNSYGIS | VIYSDGRRTFYNDSVK | GRPAGTFPS | Ctrl | ND / ND / ND / 2.41 / ND / ND | 0 of 18 |
| 39 | GFTLNSYGIS | VIYSDGHRTFYGDSVK | GRAAGFFDS | Ctrl | ND / ND / ND / ND / ND / ND | 0 of 18 |
| 40 | GFTLNSYGIS | VIYSDGRRTFYMDSVK | DRAAGTFKS | Ctrl | ND / ND / ND / ND / 1.57 / ND | 0 of 18 |
| 41 | GHTLNEYGIS | VIYADGRRTSYGDSVK | GRAAGTFDS | Ctrl | 0.26 / 0.25 / 0.23 / 0.01 / -0.27 / -0.05 | 0 of 18 |
| 42 | GFSLNDYGIS | VIYSDGFRTFYGDSVK | GRAAGTFDL | Ctrl | 0.36 / 0.18 / 0.15 / -0.04 / 0.54 / 0.53 | 1 of 18 (1.60) |
| 43 | GFTLTSYGIS | VIYADGRRTFYGDSVK | GRAAGTFDS | Ctrl+GPLM_Gen | 0.42 / 0.98 / 0.91 / 1.05 / 0.72 / 0.67; 0.17 / 0.02 / 0.67 / 0.57 / -0.09 / -0.22 | 3 of 36 (2.50) |
| 44 | GFTLNSAGIS | VIYSDGVRTFYSDSVK | GALAGTFVS | Ctrl | ND / ND / ND / ND / ND / ND | 0 of 18 |
| 45 | GETLNSYGIS | VIYSDGRRTFYGDSVK | GDAAGTFDL | Ctrl | ND / 1.72 / ND / 3.41 / ND / ND | 1 of 18 (2.26) |
| 46 | GFTLNSYGIS | VIYRDGRRTFYGDSVK | GIAAGTFRS | Ctrl | ND / ND / ND / ND / ND / ND | 0 of 18 |
| 47 | GFTLNSYGIS | VIYSDGVRTFYGDKVK | GRAAGTFDS | Ctrl | ND / 2.18 / 0.94 / ND / 2.22 / 1.22 | 0 of 18 |
| 48 | GFTLNSYGIS | VIYSDGRRTFYDDSVK | GDAAGTFDS | Ctrl | 1.07 / 0.55 / 0.69 / 0.64 / 0.70 / 0.65 | 0 of 18 |
| 49 | GFTLNSFGIS | VIYSDGRRTQYGDSVK | GRAAGTFDS | Ctrl | ND / ND / ND / ND / ND / ND | 0 of 18 |
| 50 | GFTLNDYGIS | VIYSDGRRTFYGDSVK | NRHADTFDS | Ctrl | ND / 2.15 / ND / ND / ND / ND | 0 of 18 |
| 51 | GFTLNSYGIS | VIYSDGRRTFYTDSVK | GRAAGIFDS | Ctrl | ND / ND / ND / ND / ND / ND | 1 of 18 (1.19) |
| 52 | GFTLNDYGIS | VIYSDGRRTFYGDSVK | GQAAGTFDS | Ctrl | 1.60 / 0.99 / 0.99 / 1.44 / 0.74 / 1.51 | 1 of 18 (3.39) |

Picked from the list: the 7 lowest averages where every replicate gave a value.

CDR-H1,CDR-H2,CDR-H3,group,"replicates, log10 nM",control signals
GHTLNEYGIS,VIYADGRRTSYGDSVK,GRAAGTFDS,Ctrl,0.26 / 0.25 / 0.23 / 0.01 / -0.27 / -0.05,0 of 18
GFSLNDYGIS,VIYSDGFRTFYGDSVK,GRAAGTFDL,Ctrl,0.36 / 0.18 / 0.15 / -0.04 / 0.54 / 0.53,1 of 18 (1.60)
GFTLTSYGIS,VIYADGRRTFYGDSVK,GRAAGTFDS,Ctrl+GPLM_Gen,0.42 / 0.98 / 0.91 / 1.05 / 0.72 / 0.67; 0.17 / 0.02 / 0.67 / 0.57 / -0.09 / -0.22,3 of 36 (2.50)
GFTLNSYGIS,VIYSDGRRTFYDDSVK,GDAAGTFDS,Ctrl,1.07 / 0.55 / 0.69 / 0.64 / 0.70 / 0.65,0 of 18
GFTLNSYGIS,VIYSDGRRTAYDDSVR,GRAAGTFDS,Ctrl,1.35 / 0.13 / 1.59 / -0.09 / 1.15 / 0.62,1 of 18 (1.70)
GFTLNDYGIS,VIYSDGRRTFYGDSVK,GQAAGTFDS,Ctrl,1.60 / 0.99 / 0.99 / 1.44 / 0.74 / 1.51,1 of 18 (3.39)
GFEINSYGIS,VIYSDGRRTFYGDSVK,GRAAGTFDS,Ctrl,1.61 / 1.13 / 2.36 / 0.77 / 1.52 / 1.40,0 of 18